From article PMC4423116, “Tarantula toxins use common surfaces for interacting with Kv and ASIC ion channels” (eLife, 2015)

Target: T1, Kv2.1 channel (Rattus norvegicus, UniProt P15387)
T1 construct: expressed in transfected cells; host or cells: Xenopus laevis oocytes, cRNA injection
T1 sequence (P15387 1-857): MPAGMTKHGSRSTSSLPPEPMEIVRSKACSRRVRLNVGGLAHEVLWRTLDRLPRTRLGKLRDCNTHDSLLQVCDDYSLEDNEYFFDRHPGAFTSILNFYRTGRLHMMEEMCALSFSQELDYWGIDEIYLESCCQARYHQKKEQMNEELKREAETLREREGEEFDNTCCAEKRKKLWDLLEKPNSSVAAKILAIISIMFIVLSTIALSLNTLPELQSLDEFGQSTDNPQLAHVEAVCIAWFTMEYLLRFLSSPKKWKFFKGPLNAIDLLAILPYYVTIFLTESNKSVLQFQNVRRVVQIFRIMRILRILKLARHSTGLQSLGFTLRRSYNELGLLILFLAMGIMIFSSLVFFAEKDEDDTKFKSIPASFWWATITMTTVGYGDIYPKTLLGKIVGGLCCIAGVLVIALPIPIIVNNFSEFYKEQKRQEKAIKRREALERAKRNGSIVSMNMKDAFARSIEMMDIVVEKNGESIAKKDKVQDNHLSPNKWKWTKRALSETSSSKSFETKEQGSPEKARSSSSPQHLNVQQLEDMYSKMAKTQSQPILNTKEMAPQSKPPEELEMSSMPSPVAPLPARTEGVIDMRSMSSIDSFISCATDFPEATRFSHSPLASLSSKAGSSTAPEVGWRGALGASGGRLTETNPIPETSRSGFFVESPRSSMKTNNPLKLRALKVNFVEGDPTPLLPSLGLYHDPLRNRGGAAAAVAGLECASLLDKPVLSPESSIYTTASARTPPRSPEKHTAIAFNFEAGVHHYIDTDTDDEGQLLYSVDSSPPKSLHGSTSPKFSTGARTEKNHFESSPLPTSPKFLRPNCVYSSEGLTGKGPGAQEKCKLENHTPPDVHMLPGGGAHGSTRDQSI
Test: Inhibition of Kv2.1 channel currents in Xenopus oocytes (two-electrode voltage clamp), apparent affinity
Assay type: cell-based
Settings: Kv2.1 in oocytes; for ∆∆G (perturbation energy): from apparent Kd of mutant vs GxTx-1E(Nle); for Kd^mut/Kd^wt: ratio of apparent Kd of mutant to GxTx-1E(Nle)

| SMILES | ∆∆G (perturbation energy) [kcal/mol] | Kd^mut/Kd^wt |
| --- | --- | --- |
| CCCC[C@H](NC(=O)[C@@H]1CCCN1C(=O)[C@H](Cc1ccccc1)NC(=O)[C@H](CC(N)=O)NC(=O)[C@@H]1CSSC[C@@H]2NC(=O)[C@H](C)NC(=O)[C@@H]3CCCN3C(=O)[C@H](CCCCN)NC(=O)CNC(=O)[C@H](CO)NC(=O)CNC(=O)[C@@H]3CSSC[C@H](NC(=O)[C@H](C(C)C)NC(=O)[C@H](Cc4ccc(O)cc4)NC(=O)[C@H](CCCCN)NC(=O)[C@@H]4CCCN4C(=O)[C@H](CSSC[C@H](NC(=O)[C@H](CCC(=O)O)NC(=O)CNC(=O)[C@@H](N)CCC(=O)O)C(=O)NCC(=O)NCC(=O)N[C@@H](Cc4ccccc4)C(=O)N[C@@H](Cc4c[nH]c5ccccc45)C(=O)N[C@@H](Cc4c[nH]c5ccccc45)C(=O)N[C@@H](CCCCN)C(=O)N3)NC2=O)C(=O)N[C@@H](CO)C(=O)N[C@@H](C)C(=O)N[C@@H](CCCCN)C(=O)N[C@@H](Cc2c[nH]c3ccccc23)C(=O)NCC(=O)N[C@@H](CC(C)C)C(=O)N1)C(=O)N1CCC[C@H]1C(=O)O [Toxin P26A] | 0.76 | 3.6 |
| CCCC[C@H](NC(=O)[C@H](C)NC(=O)[C@H](Cc1ccccc1)NC(=O)[C@H](CC(N)=O)NC(=O)[C@@H]1CSSC[C@@H]2NC(=O)[C@H](C)NC(=O)[C@@H]3CCCN3C(=O)[C@H](CCCCN)NC(=O)CNC(=O)[C@H](CO)NC(=O)CNC(=O)[C@@H]3CSSC[C@H](NC(=O)[C@H](C(C)C)NC(=O)[C@H](Cc4ccc(O)cc4)NC(=O)[C@H](CCCCN)NC(=O)[C@@H]4CCCN4C(=O)[C@H](CSSC[C@H](NC(=O)[C@H](CCC(=O)O)NC(=O)CNC(=O)[C@@H](N)CCC(=O)O)C(=O)NCC(=O)NCC(=O)N[C@@H](Cc4ccccc4)C(=O)N[C@@H](Cc4c[nH]c5ccccc45)C(=O)N[C@@H](Cc4c[nH]c5ccccc45)C(=O)N[C@@H](CCCCN)C(=O)N3)NC2=O)C(=O)N[C@@H](CO)C(=O)N2CCC[C@H]2C(=O)N[C@@H](CCCCN)C(=O)N[C@@H](Cc2c[nH]c3ccccc23)C(=O)NCC(=O)N[C@@H](CC(C)C)C(=O)N1)C(=O)N1CCC[C@H]1C(=O)O [Toxin P34A] | 0.26 | 1.6 |
| CCCC[C@H](NC(=O)[C@@H]1CCCN1C(=O)[C@H](Cc1ccccc1)NC(=O)[C@H](CC(N)=O)NC(=O)[C@@H]1CSSC[C@@H]2NC(=O)[C@H](C)NC(=O)[C@@H]3CCCN3C(=O)[C@H](CCCCN)NC(=O)CNC(=O)[C@H](CO)NC(=O)CNC(=O)[C@@H]3CSSC[C@H](NC(=O)[C@H](C(C)C)NC(=O)[C@H](Cc4ccc(O)cc4)NC(=O)[C@H](CCCCN)NC(=O)[C@@H]4CCCN4C(=O)[C@H](CSSC[C@H](NC(=O)[C@H](CCC(=O)O)NC(=O)CNC(=O)[C@@H](N)CCC(=O)O)C(=O)NCC(=O)NCC(=O)N[C@@H](Cc4ccccc4)C(=O)N[C@@H](Cc4c[nH]c5ccccc45)C(=O)N[C@@H](Cc4c[nH]c5ccccc45)C(=O)N[C@@H](CCCCN)C(=O)N3)NC2=O)C(=O)N[C@@H](CO)C(=O)N2CCC[C@H]2C(=O)N[C@@H](CCCCN)C(=O)N[C@@H](Cc2c[nH]c3ccccc23)C(=O)NCC(=O)N[C@@H](CC(C)C)C(=O)N1)C(=O)N[C@@H](C)C(=O)O [Toxin P36A] | 0.07 | 1.1 |
| CCCC[C@H](NC(=O)[C@@H]1CCCN1C(=O)[C@H](Cc1ccccc1)NC(=O)[C@H](CC(N)=O)NC(=O)[C@@H]1CSSC[C@@H]2NC(=O)[C@H](C)NC(=O)[C@@H]3CCCN3C(=O)[C@H](CCCCN)NC(=O)CNC(=O)[C@H](C)NC(=O)CNC(=O)[C@@H]3CSSC[C@H](NC(=O)[C@H](C(C)C)NC(=O)[C@H](Cc4ccc(O)cc4)NC(=O)[C@H](CCCCN)NC(=O)[C@@H]4CCCN4C(=O)[C@H](CSSC[C@H](NC(=O)[C@H](CCC(=O)O)NC(=O)CNC(=O)[C@@H](N)CCC(=O)O)C(=O)NCC(=O)NCC(=O)N[C@@H](Cc4ccccc4)C(=O)N[C@@H](Cc4c[nH]c5ccccc45)C(=O)N[C@@H](Cc4c[nH]c5ccccc45)C(=O)N[C@@H](CCCCN)C(=O)N3)NC2=O)C(=O)N[C@@H](CO)C(=O)N2CCC[C@H]2C(=O)N[C@@H](CCCCN)C(=O)N[C@@H](Cc2c[nH]c3ccccc23)C(=O)NCC(=O)N[C@@H](CC(C)C)C(=O)N1)C(=O)N1CCC[C@H]1C(=O)O [Toxin S13A] | 0.53 | 2.4 |
| CCCC[C@H](NC(=O)[C@@H]1CCCN1C(=O)[C@H](Cc1ccccc1)NC(=O)[C@H](CC(N)=O)NC(=O)[C@@H]1CSSC[C@@H]2NC(=O)[C@H](C)NC(=O)[C@@H]3CCCN3C(=O)[C@H](CCCCN)NC(=O)CNC(=O)[C@H](CO)NC(=O)CNC(=O)[C@@H]3CSSC[C@H](NC(=O)[C@H](C(C)C)NC(=O)[C@H](Cc4ccc(O)cc4)NC(=O)[C@H](CCCCN)NC(=O)[C@@H]4CCCN4C(=O)[C@H](CSSC[C@H](NC(=O)[C@H](CCC(=O)O)NC(=O)CNC(=O)[C@@H](N)CCC(=O)O)C(=O)NCC(=O)NCC(=O)N[C@@H](Cc4ccccc4)C(=O)N[C@@H](Cc4c[nH]c5ccccc45)C(=O)N[C@@H](Cc4c[nH]c5ccccc45)C(=O)N[C@@H](CCCCN)C(=O)N3)NC2=O)C(=O)N[C@@H](C)C(=O)N2CCC[C@H]2C(=O)N[C@@H](CCCCN)C(=O)N[C@@H](Cc2c[nH]c3ccccc23)C(=O)NCC(=O)N[C@@H](CC(C)C)C(=O)N1)C(=O)N1CCC[C@H]1C(=O)O [Toxin S25A] | 0.98 | 5.2 |
| CCCC[C@H](NC(=O)[C@@H]1CCCN1C(=O)[C@H](Cc1ccccc1)NC(=O)[C@H](CC(N)=O)NC(=O)[C@@H]1CSSC[C@@H]2NC(=O)[C@H](C)NC(=O)[C@@H]3CCCN3C(=O)[C@H](CCCCN)NC(=O)CNC(=O)[C@H](CO)NC(=O)CNC(=O)[C@@H]3CSSC[C@H](NC(=O)[C@H](C)NC(=O)[C@H](Cc4ccc(O)cc4)NC(=O)[C@H](CCCCN)NC(=O)[C@@H]4CCCN4C(=O)[C@H](CSSC[C@H](NC(=O)[C@H](CCC(=O)O)NC(=O)CNC(=O)[C@@H](N)CCC(=O)O)C(=O)NCC(=O)NCC(=O)N[C@@H](Cc4ccccc4)C(=O)N[C@@H](Cc4c[nH]c5ccccc45)C(=O)N[C@@H](Cc4c[nH]c5ccccc45)C(=O)N[C@@H](CCCCN)C(=O)N3)NC2=O)C(=O)N[C@@H](CO)C(=O)N2CCC[C@H]2C(=O)N[C@@H](CCCCN)C(=O)N[C@@H](Cc2c[nH]c3ccccc23)C(=O)NCC(=O)N[C@@H](CC(C)C)C(=O)N1)C(=O)N1CCC[C@H]1C(=O)O [Toxin V23A] | 0.50 | 2.3 |
| CCCC[C@H](NC(=O)[C@@H]1CCCN1C(=O)[C@H](Cc1ccccc1)NC(=O)[C@H](CC(N)=O)NC(=O)[C@@H]1CSSC[C@@H]2NC(=O)[C@H](C)NC(=O)[C@@H]3CCCN3C(=O)[C@H](CCCCN)NC(=O)CNC(=O)[C@H](CO)NC(=O)CNC(=O)[C@@H]3CSSC[C@H](NC(=O)[C@H](C(C)C)NC(=O)[C@H](C)NC(=O)[C@H](CCCCN)NC(=O)[C@@H]4CCCN4C(=O)[C@H](CSSC[C@H](NC(=O)[C@H](CCC(=O)O)NC(=O)CNC(=O)[C@@H](N)CCC(=O)O)C(=O)NCC(=O)NCC(=O)N[C@@H](Cc4ccccc4)C(=O)N[C@@H](Cc4c[nH]c5ccccc45)C(=O)N[C@@H](Cc4c[nH]c5ccccc45)C(=O)N[C@@H](CCCCN)C(=O)N3)NC2=O)C(=O)N[C@@H](CO)C(=O)N2CCC[C@H]2C(=O)N[C@@H](CCCCN)C(=O)N[C@@H](Cc2c[nH]c3ccccc23)C(=O)NCC(=O)N[C@@H](CC(C)C)C(=O)N1)C(=O)N1CCC[C@H]1C(=O)O [Toxin Y22A] | 3.00 | 157.7 |
